One may read the Kd as the constant that tells how readily two partners part at equilibrium. A low value points to tighter binding.

By UniProt entry, the sequences of proteins in these tests, tags left out. Residues count along the entry.
UniProt P68403, 2-671: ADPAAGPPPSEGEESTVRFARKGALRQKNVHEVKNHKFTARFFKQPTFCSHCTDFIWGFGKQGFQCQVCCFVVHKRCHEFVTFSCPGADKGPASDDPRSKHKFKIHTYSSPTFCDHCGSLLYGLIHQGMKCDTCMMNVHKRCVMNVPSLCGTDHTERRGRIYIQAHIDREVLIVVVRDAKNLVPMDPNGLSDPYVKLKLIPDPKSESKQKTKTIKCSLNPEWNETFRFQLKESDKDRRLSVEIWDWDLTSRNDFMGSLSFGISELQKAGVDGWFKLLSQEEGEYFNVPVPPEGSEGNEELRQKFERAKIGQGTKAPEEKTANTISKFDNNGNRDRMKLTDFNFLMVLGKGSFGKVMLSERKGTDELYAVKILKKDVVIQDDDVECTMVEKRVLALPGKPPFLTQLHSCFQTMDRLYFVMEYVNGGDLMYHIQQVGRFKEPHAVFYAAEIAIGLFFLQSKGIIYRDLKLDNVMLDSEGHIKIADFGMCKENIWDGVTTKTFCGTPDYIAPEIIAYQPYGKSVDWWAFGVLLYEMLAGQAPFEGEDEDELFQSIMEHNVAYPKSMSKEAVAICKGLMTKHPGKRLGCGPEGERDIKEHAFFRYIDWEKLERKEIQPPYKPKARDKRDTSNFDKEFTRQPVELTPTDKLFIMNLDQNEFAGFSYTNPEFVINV

The target of the assay is T1, rat PKC β-1 (Rattus norvegicus, UniProt P68403).
T1 construct: we inserted the complete protein coding cDNA of rat PKC β-1; made in house; host or cells: Saccharomyces cerevisiae strain 334, YEp51 with GAL10 promoter; crude detergent cell extract
The assay can be described thus: [3H]PDBu binding to yeast spheroplasts expressing PKC beta-1 forms.

The compound `CCCC(=O)O[C@@H]1[C@@H](C)[C@@]2(O)[C@@H](C=C(CO)C[C@]3(O)C(=O)C(C)=C[C@@H]23)[C@@H]2C(C)(C)[C@]12OC(=O)CCC` [PDBu, phorbol-12, 13-dibutyrate] registered a Kd of 80 nM.

The record behind these values is patent US5776685A, “Protein kinase C assay” (Joslin Diabetes Center, priority 1996, dated 1998).
